Data on 30 molecules can be found in patent US20230303584A1, “4,5,6,7-TETRAHYDROTHIENO[2,3-C]PYRIDINE SUMO INHIBITORS AND USES THEREOF” (SUVALENT THERAPEUTICS INC., priority 2020, published 2023).

Protein sequences, listed by entry. Tags and fused reporters are not part of them.
UniProt Q9UBT2, whole entry: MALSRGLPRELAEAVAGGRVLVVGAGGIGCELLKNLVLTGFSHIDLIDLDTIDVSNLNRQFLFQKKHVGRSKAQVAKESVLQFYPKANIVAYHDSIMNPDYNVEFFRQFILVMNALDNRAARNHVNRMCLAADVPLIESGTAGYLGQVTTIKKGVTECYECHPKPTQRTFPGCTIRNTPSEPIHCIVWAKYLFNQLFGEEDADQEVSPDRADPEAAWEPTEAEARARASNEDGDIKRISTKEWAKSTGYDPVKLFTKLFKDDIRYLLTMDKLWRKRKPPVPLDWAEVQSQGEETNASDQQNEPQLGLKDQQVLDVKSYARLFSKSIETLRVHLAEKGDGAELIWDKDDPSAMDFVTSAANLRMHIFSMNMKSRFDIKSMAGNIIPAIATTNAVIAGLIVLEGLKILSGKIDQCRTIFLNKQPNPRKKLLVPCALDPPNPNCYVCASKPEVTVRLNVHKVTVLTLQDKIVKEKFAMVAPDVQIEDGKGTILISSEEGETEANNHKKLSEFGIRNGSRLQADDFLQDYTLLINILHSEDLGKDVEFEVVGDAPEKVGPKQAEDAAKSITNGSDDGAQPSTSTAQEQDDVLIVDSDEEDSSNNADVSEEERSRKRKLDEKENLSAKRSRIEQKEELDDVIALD
UniProt Q9UBE0, whole entry partner: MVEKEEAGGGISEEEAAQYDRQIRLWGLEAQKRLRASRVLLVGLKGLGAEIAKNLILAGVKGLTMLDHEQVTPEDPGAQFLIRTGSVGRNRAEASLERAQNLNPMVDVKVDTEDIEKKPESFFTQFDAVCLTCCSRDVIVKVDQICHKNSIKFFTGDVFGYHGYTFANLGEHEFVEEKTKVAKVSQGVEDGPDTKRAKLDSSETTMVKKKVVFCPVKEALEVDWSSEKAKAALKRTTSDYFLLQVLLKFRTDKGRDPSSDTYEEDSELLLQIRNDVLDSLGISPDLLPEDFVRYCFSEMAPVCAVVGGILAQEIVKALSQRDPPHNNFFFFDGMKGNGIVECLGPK

The target of the first test is SAE1 (Homo sapiens (Human), UniProt Q9UBT2). The test is described as follows: SAE high throughput biochemical (HTRF) assay. Particulars: read-out: 15 min preincubation HTRF IC50 (uM) Ave, 100 µM ATP. Here is the method:
Assay buffer was prepared [50 mM HEPES, pH 7.5, 0.1% BSA and 10 mM MgCl2] as was the Stop Buffer [100 mM HEPES, pH 7.5, 0.05% Tween20, and 410 mM KF]. The 2x Reaction Buffer [80 nM SUMO-GST, 80 nM UBC9-His, 200 µM ATP and diluted in Assay Buffer] and Antibody Reaction Mix [13.34 nM anti-GST XL665, 1.66 nM anti-His EuK and Diluted in Stop Buffer] were also prepared. Compounds were dissolved at 200x in DMSO in a 384-well plate. Serial dilutions were performed in DMSO for each compound, and then each concentration was diluted another 50-fold in Assay Buffer, to 4x the final concentration. 2.5 µL of each concentration was transferred into its own well in a 384-well plate. SAE1 was then diluted to 4x in Assay Buffer, and 2.5 µL of 4x SAE1 was mixed into each compound-containing well. After incubating for 15 minutes at room temperature, 5 µL of 2x Reaction Buffer was mixed into every well. Then after another 45 minutes at room temperature, 10 µL of Antibody Reaction Mix was added and mixed into every well. This plate was then read on an HTRF-compatible plate reader after 2 hours at room temperature, and again after sitting at room temperature overnight. [Final Component Concentrations: SAE1: 12.5 nM; SUMO-GST: 40 nM; UBC9-His: 40 nM; Anti-GST-XL665: 6.67 nM; Anti-His-EuK: 0.83 nM; and ATP: 100 µM ] Alternatively, the compounds are tested at a single concentration of 25 micromolar and the percent of control is measured.
For orientation: TR-FRET usually uses a lanthanide donor and a delayed reading to cut background.
In the case of `C=CC(=O)N1Cc2sc(Cl)cc2[C@H](c2ccccc2-c2cnn(CC)c2)C1`, the IC50 – broadly, the point on the concentration scale where inhibition reaches its midpoint – was determined as 10.2 µM. Still for that read-out and setting: under `C=CC(=O)N1Cc2sc(Cl)cc2C(c2ccsc2Br)C1` (stereo not shown) stands 0.76 µM. As to `C=CC(=O)N1Cc2sc(Cl)cc2C(c2ccccc2-c2ccc(C)nc2C)C1` (stereo not shown), the IC50 was 3.72 µM.

With `C=CC(=O)N1Cc2sc(Cl)cc2C(c2ccccc2-c2cn(CC)nc2C(F)(F)F)C1` (stereo not shown), the IC50 was found to be 0.33 µM.

In the case of `C=CC(=O)N1Cc2sc(Cl)cc2C(c2ccccc2-c2cncnc2C)C1` (stereo not shown), the IC50 came to 3.92 µM. For the molecule `C=CC(=O)N1Cc2sc(Cl)cc2C(c2ccccc2-c2c(C)noc2C)C1` (stereo not shown), the IC50 was 3.31 µM.

`C=CC(=O)N1Cc2sc(Cl)cc2C(c2ccccc2-c2cn(CCC)nc2C(F)(F)F)C1` (stereo not shown): the IC50 was found to be 0.31 µM. Same read-out and setting: the result for `C=CC(=O)N1Cc2sc(Cl)cc2[C@H](c2ccccc2-c2c(C(F)(F)F)nn(CC)c2C#N)C1` reads 1.54 µM; that for `CCn1cc(-c2ccccc2[C@@H]2CN(C(=O)/C=C/CN3CCC3)Cc3sc(Cl)cc32)c(C(F)(F)F)n1`, 0.89 µM; that for `C=CC(=O)N1Cc2sc(Cl)cc2[C@H](c2ccccc2-c2cn(Cc3cocn3)nc2C(F)(F)F)C1`, 0.66 µM. Take `C=CC(=O)N1Cc2sc(Cl)cc2C(c2ccccc2-c2cn(Cc3ccccc3)nc2C)C1` (stereo not shown): the IC50 was 20.6 µM. The same measure, in the same setting: the result for `C=CC(=O)N1Cc2sc(Cl)cc2C(c2cccs2)C1` (stereo not shown) reads 1.67 µM. As for `[2H]C1([2H])c2sc(Cl)cc2[C@H](c2ccccc2-c2cn(CC)nc2C(F)(F)F)CN1C(=O)C=C`, the IC50 stood at 0.48 µM. Regarding `C=CC(=O)N1Cc2sc(Cl)cc2C(c2ccccc2-c2cn(-c3ccccn3)nc2C)C1` (stereo not shown), the 50% inhibitory concentration (IC50) stood at 4.08 µM.

Consider `CCn1cc(-c2ccccc2[C@@H]2CN(C(=O)/C=C/CN3CCOCC3)Cc3sc(Cl)cc32)c(C(F)(F)F)n1` [Compound 364], for which the IC50 was 20.2 µM. On the same count and under the same terms, under `C=CC(=O)N1Cc2sc(Cl)cc2[C@H](c2ccccc2-c2c(C)ncnc2C)C1` stands 12.1 µM; under `C=CC(=O)N1Cc2sc(Cl)cc2C(c2ccsc2C)C1` (stereo not shown), 0.94 µM; under `C=CC(=O)N1Cc2sc(Cl)cc2C(c2ccccc2-c2cn(CCCC)nc2C(F)(F)F)C1` (single isomer, unassigned), 0.73 µM. On the same count and under the same terms, under `CCn1cc(-c2ccccc2[C@@H]2CN(C(=O)/C=C/CN3CCC(O)CC3)Cc3sc(Cl)cc32)c(C(F)(F)F)n1` stands 19.5 µM; under `C=CC(=O)N1Cc2sc(Cl)cc2[C@@H](c2ccccc2-c2cn(CC)nc2C(F)(F)F)C1`, over 25 µM; under `C=CC(=O)N1Cc2sccc2C(c2ccccc2-c2cn(CC)nc2C(F)(F)F)C1` (stereo not shown), 4.1 µM.

The same test, now with this note: single concentration 25 µM; 15 min preincubation.
In the case of `C=CC(=O)N1Cc2sc(Cl)cc2C(c2ccccc2-c2cc(C)ncn2)C1` (stereo not shown), the “HTRF percent of control (POC) @ 25 µM” value stood at 91.85 POC @ 25 µM. On the same count and under the same terms, under `C=CC(=O)N1Cc2sc(Cl)cc2C(c2ccccc2-c2ccncc2)C1` (stereo not shown) stands 15.29 POC @ 25 µM; under `C=CC(=O)N1Cc2sc(Cl)cc2C(c2ccccc2-c2c(C)noc2C)C1` (stereo not shown), 7.23 POC. Turning to `C=CC(=O)N1Cc2sc(Cl)cc2C(c2ccccc2-c2cncc(Cl)c2)C1` (stereo not shown), the “HTRF percent of control (POC) @ 25 µM” value amounted to 28.04 POC @ 25 µM. For the molecule `C=CC(=O)N1Cc2sc(Cl)cc2C(c2ccccc2-c2cc(C)nc(C)n2)C1` (stereo not shown), the “HTRF percent of control (POC) @ 25 µM” value came to 14.18 POC @ 25 µM.

Consider `C=CC(=O)N1Cc2sc(Cl)cc2C(c2ccccc2-c2cnc(C)c(C)c2)C1` (stereo not shown), for which the “HTRF percent of control (POC) @ 25 µM” value amounted to 14.78 POC @ 25 µM. With `C=CC(=O)N1Cc2sc(Cl)cc2C(c2ccccc2-c2cn(Cc3ccccc3)nc2C)C1` (stereo not shown), the “HTRF percent of control (POC) @ 25 µM” value worked out at 12.42 POC. As to `C=CC(=O)N1Cc2sc(Cl)cc2C(c2ccccc2-c2cc(C3CC3)nn2C)C1` (stereo not shown), the “HTRF percent of control (POC) @ 25 µM” value amounted to 94.96 POC @ 25 µM. On the same count and under the same terms, the result for `C=CC(=O)N1Cc2sc(Cl)cc2C(c2ccccc2-c2cn(-c3ccccn3)nc2C)C1` (stereo not shown) reads 12.55 POC; that for `C=CC(=O)N1Cc2sc(Cl)cc2C(c2ccccc2-c2ncnn2C)C1` (stereo not shown), 29.39 POC @ 25 µM. On the same count and under the same terms, under `C=CC(=O)N1Cc2sc(Cl)cc2C(c2ccccc2-c2cccnc2OCC)C1` (stereo not shown) stands 33.75 POC @ 25 µM; under `C=CC(=O)N1Cc2sc(Cl)cc2C(c2ccccc2-c2cn(CCCC)nc2C(F)(F)F)C1` (single isomer, unassigned), 0.7 POC. On the same count and under the same terms, the result for `C=CC(=O)N1Cc2sc(Cl)cc2C(c2ccccc2-c2cccc(C)n2)C1` (stereo not shown) reads 17.58 POC @ 25 µM.
